Earlier results on two molecules are cited in US8449914B2, “Controlled release carvedilol compositions” (Egalet Ltd., priority 2002, dated 2013).

The conditions of this data set: in vivo.

One may read the t½ as how long it takes for the measured level to halve. Take `COc1ccccc1OCCNC[C@H](O)COc1cccc2[nH]c3ccccc3c12` [S(−)-carvedilol]: the t½ is reported as 22.1 h.

Turning to `COc1ccccc1OCCNC[C@@H](O)COc1cccc2[nH]c3ccccc3c12` [R(+)-carvedilol], the t½ is recorded as 9.6 h.
